# Results taken from patent US4338330A, “Benzimidazole derivatives, their use, and compositions containing these derivatives” (Continental Pharma, priority 1979, dated 1982).
# The chains behind the UniProt entries cited, without tags or fusion partners.
# UniProt Q8K4Z4, whole entry: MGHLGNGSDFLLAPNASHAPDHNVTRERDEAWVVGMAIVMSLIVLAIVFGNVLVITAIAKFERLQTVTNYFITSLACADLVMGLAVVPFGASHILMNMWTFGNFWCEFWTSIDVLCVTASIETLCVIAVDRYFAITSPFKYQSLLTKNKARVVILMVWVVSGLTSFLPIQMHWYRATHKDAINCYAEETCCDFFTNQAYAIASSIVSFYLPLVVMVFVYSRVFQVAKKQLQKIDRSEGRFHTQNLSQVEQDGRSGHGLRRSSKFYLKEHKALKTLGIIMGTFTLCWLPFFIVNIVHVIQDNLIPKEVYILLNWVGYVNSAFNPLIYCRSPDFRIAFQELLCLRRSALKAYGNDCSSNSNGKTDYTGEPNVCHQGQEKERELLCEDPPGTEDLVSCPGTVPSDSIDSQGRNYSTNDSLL
# Biological target: β2 receptors of the guinea pig trachea (Cavia porcellus, UniProt Q8K4Z4)
# Assay: Antagonist effect on relaxation of trachea by isoproterenol (pA2)
compound,measurement,value
"CC(C)NCC(O)COc1ccc(CC(N)=O)cc1 (stereo not shown) [Atenolol, reference compound]",Kb,2.29 µM
